{"source": "patent US20070078620A1", "about": "“Methods and kits for delivering pharmaceutical agents into the coronary vascular adventitia” (Mercator MedSystems Inc., priority 2002, published 2007)", "settings": "pig, in vivo", "data": [{"substance": "Oregon Green® 488 paclitaxel [OGP]", "values": [{"measurement": "circumferential staining", "value": "staining was observed throughout the circumference of the artery"}, {"measurement": "longitudinal extension from the injection site (mean)", "value": 15, "unit": "mm"}, {"measurement": "penetration of drug into vessel wall layers", "value": "penetrated into the media"}, {"measurement": "staining after intraluminal delivery", "value": "staining on the luminal surface only"}, {"measurement": "staining of the adventitia (UV microscope, scored 0-4+)", "value": "4+"}]}]}
